Assay results from publication PMC8277517, “Anticolon Cancer Properties of Pyrazole Derivatives Acting through Xanthine Oxidase Inhibition” (Journal of Oncology, 2021).

Amino acid sequences for entries named in this document (tags omitted).
UniProt P47989, whole entry: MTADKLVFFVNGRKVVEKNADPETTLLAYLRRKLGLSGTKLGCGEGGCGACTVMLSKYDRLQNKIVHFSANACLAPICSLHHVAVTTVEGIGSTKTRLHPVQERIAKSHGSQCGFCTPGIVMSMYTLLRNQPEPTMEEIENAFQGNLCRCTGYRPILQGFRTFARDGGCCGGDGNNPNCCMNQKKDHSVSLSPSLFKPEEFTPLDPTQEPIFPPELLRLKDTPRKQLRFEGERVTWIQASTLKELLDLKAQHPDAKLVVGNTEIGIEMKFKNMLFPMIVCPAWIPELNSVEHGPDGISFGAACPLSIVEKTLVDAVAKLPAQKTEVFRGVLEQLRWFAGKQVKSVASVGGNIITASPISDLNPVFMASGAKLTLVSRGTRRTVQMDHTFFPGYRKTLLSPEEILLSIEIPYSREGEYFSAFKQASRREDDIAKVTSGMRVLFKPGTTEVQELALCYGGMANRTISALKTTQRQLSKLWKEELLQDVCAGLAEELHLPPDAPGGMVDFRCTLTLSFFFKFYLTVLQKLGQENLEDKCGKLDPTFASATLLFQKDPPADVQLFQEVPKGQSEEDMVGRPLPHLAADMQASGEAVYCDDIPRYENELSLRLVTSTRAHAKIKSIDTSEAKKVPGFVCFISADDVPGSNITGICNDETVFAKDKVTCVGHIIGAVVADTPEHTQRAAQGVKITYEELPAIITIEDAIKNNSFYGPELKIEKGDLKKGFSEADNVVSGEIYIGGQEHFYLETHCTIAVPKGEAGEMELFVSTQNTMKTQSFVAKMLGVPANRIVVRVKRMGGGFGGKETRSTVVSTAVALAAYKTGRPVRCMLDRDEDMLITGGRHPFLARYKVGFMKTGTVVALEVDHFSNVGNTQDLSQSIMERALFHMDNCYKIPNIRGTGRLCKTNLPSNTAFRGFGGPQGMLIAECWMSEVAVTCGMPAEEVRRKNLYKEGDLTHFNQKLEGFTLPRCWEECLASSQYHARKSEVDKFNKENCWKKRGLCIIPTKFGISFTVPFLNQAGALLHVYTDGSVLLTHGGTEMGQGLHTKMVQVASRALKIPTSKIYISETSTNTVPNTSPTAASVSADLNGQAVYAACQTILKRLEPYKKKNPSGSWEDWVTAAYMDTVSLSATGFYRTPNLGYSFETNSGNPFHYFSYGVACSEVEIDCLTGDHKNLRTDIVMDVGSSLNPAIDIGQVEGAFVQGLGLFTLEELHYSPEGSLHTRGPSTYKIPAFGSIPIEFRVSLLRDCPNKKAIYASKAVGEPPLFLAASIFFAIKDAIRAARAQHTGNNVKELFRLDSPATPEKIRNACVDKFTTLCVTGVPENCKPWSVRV

Columns and labels:
[1] = test system: HCT-116 colorectal carcinoma cell line; assay: Sulforhodamine B (SRB) cytotoxicity assay, HCT-116; type: cell-based, human; details: for IC50: read-out: IC50 (μM) HCT-116, SRB assay, 72 h
xanthine oxidase (XO) = xanthine oxidase (XO) (Homo sapiens, UniProt P47989); assay: Xanthine oxidase inhibition assay (uric acid formation, spectrophotometric); type: biochemical; details: for IC50: read-out: IC50 (μM) xanthine oxidase inhibition, IC50 ± SD, triplicate, pH 7.4, 25°C
[2] = test system: MCF-7 breast adenocarcinoma cell line; assay: Sulforhodamine B (SRB) cytotoxicity assay, MCF-7; type: cell-based, human; details: for IC50: read-out: IC50 (μM) MCF-7, SRB assay, 72 h
[3] = test system: HepG2 hepatocellular carcinoma cell line; assay: Sulforhodamine B (SRB) cytotoxicity assay, HepG2; type: cell-based, human; details: for IC50: read-out: IC50 (μM) HepG2, SRB assay, 72 h

Row | IC50 (xanthine oxidase (XO)) [µM] | times more potent than allopurinol (XO inhibition) (xanthine oxidase (XO); relative to allopurinol) [times] | SMILES | IC50 [1] [µM] | IC50 [2] [µM] | IC50 [3] [µM] | folds more active than unsubstituted derivative ([1]; HCT-116, relative to unsubstituted phenyl derivative) [folds] | times less potent than doxorubicin ([2]; MCF-7, relative to doxorubicin) [times] | folds more active than unsubstituted derivative ([3]; HepG2, relative to unsubstituted phenyl derivative) [folds]
1 | 14.5 | – | Cc1nn(C(=O)c2ccncc2)c(C)c1N=Nc1ccc([N+](=O)[O-])cc1 | 17.3 | 94.2 | 34.6 | – | – | –
2 | 0.83 | 18.03 | Cc1nn(C(=O)c2ccncc2)c(C)c1N=Nc1ccc(Br)cc1 | 4.2 | 17.8 | 4.4 | > 22 | 3.7 | > 22
